From patent publication US12139488B2, “Pyrido[3,2-d]pyrimidine compounds uses thereof for treating a proliferative disease” (Universite de Montreal, priority 2021, dated 2024)
Where two headings read alike, the source gives them in different places.

Sequences of proteins named here, by UniProt entry; tags and fusion partners are left off.
UniProt P15056, whole entry: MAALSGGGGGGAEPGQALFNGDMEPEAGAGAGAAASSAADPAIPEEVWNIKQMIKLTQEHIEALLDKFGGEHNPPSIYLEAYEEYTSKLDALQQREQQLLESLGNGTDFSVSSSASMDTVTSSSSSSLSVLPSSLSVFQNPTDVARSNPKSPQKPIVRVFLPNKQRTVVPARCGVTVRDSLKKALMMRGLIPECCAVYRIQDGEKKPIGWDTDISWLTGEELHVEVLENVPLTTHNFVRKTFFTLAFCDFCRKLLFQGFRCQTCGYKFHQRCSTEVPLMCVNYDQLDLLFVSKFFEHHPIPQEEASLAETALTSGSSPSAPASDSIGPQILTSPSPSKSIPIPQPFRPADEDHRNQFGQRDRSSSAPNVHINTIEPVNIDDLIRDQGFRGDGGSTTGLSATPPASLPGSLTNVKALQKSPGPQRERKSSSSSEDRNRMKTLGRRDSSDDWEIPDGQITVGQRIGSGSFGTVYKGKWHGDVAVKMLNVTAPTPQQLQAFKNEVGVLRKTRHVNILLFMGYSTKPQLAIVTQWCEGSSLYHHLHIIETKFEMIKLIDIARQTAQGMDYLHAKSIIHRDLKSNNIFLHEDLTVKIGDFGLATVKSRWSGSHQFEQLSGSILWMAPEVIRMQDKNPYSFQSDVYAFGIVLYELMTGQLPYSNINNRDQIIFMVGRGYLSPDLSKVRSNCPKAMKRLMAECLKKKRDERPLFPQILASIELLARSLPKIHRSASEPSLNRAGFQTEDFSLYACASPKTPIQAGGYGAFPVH
UniProt P04049, whole entry: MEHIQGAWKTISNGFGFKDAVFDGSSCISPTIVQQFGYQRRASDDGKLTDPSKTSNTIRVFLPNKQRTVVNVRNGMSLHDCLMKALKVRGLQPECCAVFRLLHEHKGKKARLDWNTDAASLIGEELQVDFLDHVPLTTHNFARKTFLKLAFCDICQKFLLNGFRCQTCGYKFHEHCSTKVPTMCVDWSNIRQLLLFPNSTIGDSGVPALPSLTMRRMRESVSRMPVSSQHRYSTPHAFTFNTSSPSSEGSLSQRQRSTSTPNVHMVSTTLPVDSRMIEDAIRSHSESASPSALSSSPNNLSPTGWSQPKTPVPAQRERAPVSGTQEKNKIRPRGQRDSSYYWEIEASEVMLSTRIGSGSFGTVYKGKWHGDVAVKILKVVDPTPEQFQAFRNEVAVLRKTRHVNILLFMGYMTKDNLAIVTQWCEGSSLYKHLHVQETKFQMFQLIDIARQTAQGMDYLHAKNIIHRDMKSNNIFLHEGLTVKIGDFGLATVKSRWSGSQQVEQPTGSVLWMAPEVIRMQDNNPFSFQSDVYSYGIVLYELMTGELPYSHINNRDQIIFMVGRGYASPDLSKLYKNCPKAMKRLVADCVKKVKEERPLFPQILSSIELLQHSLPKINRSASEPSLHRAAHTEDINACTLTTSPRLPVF

Assays:
[1] = system: pERK in SW480 cells (KRAS G12D); assay: Phospho-ERK inhibition (AlphaLISA), SW480; details: lowest % inhibition value of the IC50 curve, SW480
Method: All cancer cell lines (A375, A101D, A2058, RKO, HT29 SK-MEL 30, IPC298, HepG2, HCT-116, Lovo, SWV620, SW480, NCI-H358, NCI-H2122, Calu-6, NCIH2087, NCIH1755, NCIH1666 and Mewo) were obtained from ATCC and cultured in RPMI-1640 medium (Gibco) supplemented with 5% heat inactivated fetal bovine serum (FBS, Wisent) at 37° C. under 5% CO2. Cells were maintained in T175 flasks (Greiner). They were passaged by removing the culture medium, washing once in 10 mL of room temperature Phosphate Buffered Saline (PBS; Wisent) and incubating at 37° C. with 2 mL of 0.05% Trypsin (Thermo-Fisher). Trypsin was then inactivated by adding complete growth medium and the cells were then replated in a T175 culture dish at the appropriate dilution. All cell lines were routinely tested for mycoplasma contamination. Tissue type and mutational status of each cell line can be found in Table B.
AlphaLISA® SureFire® Ultra™ p-ERK 1/2 (Thr202/Tyr204) analysis was conducted on cells plated in 100 μL of complete RPMI-1640 growth medium in 96-well flat-bottomed transparent dishes (Costar) at a density indicated in Table C. Cells were maintained overnight at 37° C. under 5% CO2 before treatment with compounds' dilution series for one hour. The cell density in cells/cm^2 corresponds to cell number divided by the area of one well of a 96-well plate ([…]).
In a dilution series 100 μL/well of test substance dilution prepared in complete RPMI-1640 growth media was added to the cells. The dilution series is selected so that ten concentrations cover a range from 10 μM to 0.33 nM. If necessary the initial concentration of 10 μM is increased to 100 μM or lowered to 1 μM (as in the case of A375 and H1666 cells, which are generally more sensitive to the compounds) and further dilution is carried out accordingly. The final concentration of DMSO in the assay is set at 0.5%.
After treatment, media was removed and cells were lysed in 50 μL of 1× AlphaScreen Ultra Lysis Buffer (Perkin Elmer). The AlphaLISA® SureFire® Ultra™ p-ERK 1/2 (Thr202/Tyr2O4) (PerkinElmer) reactions were performed with 5 μL of cell lysate according to the manufacturer's specifications in 384-well proxyplates (Perkin Elmer) followed by overnight incubation of the reactions at room temperature in a humidified chamber. After completion of the reactions, the signals were recorded on an EnVision plate reader (Perkin Elmer) using built in AlphaLISA® settings.
The effect of each compound dilution on the pERK signal was expressed in % inhibition and calculated as follows. An internal 100% inhibition control ([…] trametinib, cat #HY-10999; MedChem Express; CAS #871700-17-3) was included in each plate and used as a measure of pERK background. First, the value obtained for trametinib was subtracted from each data point. The average of DMSO (vehicle) controls (set as 0% inhibition) was established and used to calculate % inhibition: % inhibition=100*(1-((pERK signalcompound)/(pERK signalDMSO)))
The ability of each compound to inhibit pERK signal was expressed as an IC50 value obtained by plotting the inhibition values for each data point of a dilution series and fitting the obtained curves using a log(agonist) versus response-variable slope (four parameters) function using GraphPadPrism (V7.0) or Dotmatics Screening Ultra platform.
When present, paradoxical pERK induction is inferred from the negative % inhibition values observed in the pERK IC50 curves of a compound.

[2] = system: pERK in HCT-116 cells (KRAS G13D); assay: Phospho-ERK inhibition (AlphaLISA SureFire Ultra p-ERK 1/2), HCT116; details: for HCT116 pERK % Ymin (lowest value of the IC50 curve): Ymin above −20% = minimal or no paradoxical activation
Outline: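 Read-out: AlphaLISA p-ERK1/2 (Thr202/Tyr204) in lysates after 1 h exposure to compound in complete RPMI-1640, 5% FBS, 0.5% DMSO. Trametinib defined 100% inhibition and vehicle 0%; IC50 values come from four-parameter curves. Negative inhibition was taken as paradoxical pERK induction.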

BRAF = BRAF (Homo sapiens (Human), UniProt P15056); assay: BRAF kinase activity assay (ADP-Glo)
CRAF = CRAF (Homo sapiens, UniProt P04049); assay: CRAF kinase activity assay (ADP-Glo)
[3] = lowest % inhibition value of the IC50 curve, HCT116
[4] = read-out: HCT116 pERK IC50 in μM, HCT116 cells, 1 h treatment
[5] = read-out: Kinase IC50 (nM) BRAF
[6] = read-out: HCT116 pERK IC50, HCT116 cells, class symbol before the bracket
[7] = read-out: Kinase IC50 (nM) CRAF
[8] = read-out: Kinase IC50 (nM), BRAF biochemical kinase assay, BRAF
[9] = read-out: HCT116 pERK IC50, HCT116 cells
[10] = read-out: Kinase IC50 (nM), CRAF biochemical kinase assay, CRAF
[11] = read-out: Kinase IC50 (nM) BRAF, tested form: formic acid salt
[12] = HCT116 cells, Ymin in brackets, tested form: formic acid salt
[13] = read-out: HCT116 pERK IC50, HCT116 cells, class symbol before the bracket, tested form: formic acid salt
[14] = read-out: Kinase IC50 (nM) CRAF, tested form: formic acid salt

O=S(=O)(Nc1ccc(F)c(Nc2ncnc3ccc(-n4cnc5ccccc54)nc23)c1F)c1cc(Cl)ccc1Cl
SW480 pERK (Ymin %) [1]: −2%
HCT116 pERK Ymin % [2, 3]: −10%
IC50 [2, 4]: 1 to 10 µM

COc1ccc(S(=O)(=O)Nc2ccc(F)c(Nc3ncnc4ccc(-n5cnc6ccccc65)nc34)c2F)c(C)c1
SW480 pERK (Ymin %) [1]: 15%
HCT116 pERK Ymin % [2, 3]: 2.3%
IC50 [2, 4]: 0.5 to 1 µM

O=S(=O)(Nc1ccc(F)c(Nc2ncnc3ccc(-n4cnc5ccccc54)nc23)c1F)c1ccc2c(c1)OCO2
SW480 pERK (Ymin %) [1]: 4%
HCT116 pERK Ymin % [2, 3]: −4%
IC50 [2, 4]: 1 to 10 µM

O=S(=O)(Nc1ccc(F)c(Nc2ncnc3ccc(-n4cnc5ccccc54)nc23)c1F)c1ccccc1Br
SW480 pERK (Ymin %) [1]: 9.4%
HCT116 pERK Ymin % [2, 3]: 9.9%
IC50 [2, 4]: < 0.5 µM

Cc1c(F)cccc1S(=O)(=O)Nc1ccc(F)c(Nc2ncnc3ccc(-n4nc(C(=O)NCc5ccncc5)c5ccccc54)nc23)c1F
IC50 (BRAF; [5]): 1 to 10 nM
HCT116 pERK Ymin % ([2]; HCT116 cells, Ymin in brackets): −4.8%
IC50 [2, 6]: < 0.5 µM
IC50 (CRAF; [7]): > 50 nM

O=S(=O)(Nc1ccc(F)c(Nc2ncnc3ccc(-n4cnc5c(CN6CCO[C@@H](CO)C6)cccc54)nc23)c1F)c1ccccc1Cl
IC50 (BRAF; [5]): 1 to 10 nM
HCT116 pERK Ymin % ([2]; HCT116 cells, Ymin in brackets): 0%
IC50 [2, 6]: 1 to 10 µM
IC50 (CRAF; [7]): > 50 nM

CN(C)CCN(C)S(=O)(=O)c1cn(-c2ccc3ncnc(Nc4c(F)ccc(NS(=O)(=O)c5cccc(Cl)c5Cl)c4Cl)c3n2)c2ccccc12
IC50 (BRAF; read-out: Kinase IC50 (nM) BRAF, Table 5): < 1 nM
HCT116 pERK Ymin % ([2]; lowest value of the curve, HCT116, Table 5): −15%
IC50 ([2]; read-out: HCT116 pERK IC50, HCT116 cells, Table 5): < 0.5 µM
IC50 (CRAF; read-out: Kinase IC50 (nM) CRAF, Table 5): < 10 nM

Cc1c(Cl)cccc1S(=O)(=O)Nc1ccc(F)c(Nc2ncnc3ccc(-n4cnc5c(N6CCC(O)(C(F)(F)F)CC6)cccc54)nc23)c1F
IC50 (BRAF; [8]): 1 to 10 nM
HCT116 pERK % Ymin (lowest value of the IC50 curve) ([2]; HCT116 cells): −4%
IC50 [2, 9]: < 0.5 µM
IC50 (CRAF; [10]): 10 to 50 nM

CC(=O)N1CCN(c2cccc3c2ncn3-c2ccc3ncnc(Nc4c(F)ccc(NS(=O)(=O)c5cccc(Cl)c5Cl)c4F)c3n2)CC1
IC50 (BRAF; [8]): < 1 nM
HCT116 pERK % Ymin (lowest value of the IC50 curve) ([2]; HCT116 cells): −10%
IC50 [2, 9]: < 0.5 µM
IC50 (CRAF; [10]): < 10 nM

Cc1c(F)cccc1S(=O)(=O)Nc1ccc(F)c(Nc2ncnc3ccc(-n4cnc5c(N)cccc54)nc23)c1F
IC50 (BRAF; read-out: Kinase IC50 (nM) BRAF, tested form: HCl): < 1 nM
HCT116 pERK Ymin % ([2]; HCT116 cells, Ymin in brackets, tested form: HCl): −7.4%
IC50 ([2]; read-out: HCT116 pERK IC50, HCT116 cells, class symbol before the bracket, tested form: HCl): < 0.5 µM
IC50 (CRAF; read-out: Kinase IC50 (nM) CRAF, tested form: HCl): < 10 nM

CCCN1CCN(c2cccc3c2nnn3-c2ccc3ncnc(Nc4c(F)ccc(NS(=O)(=O)c5cccc(Cl)c5Cl)c4F)c3n2)CC1
IC50 (BRAF; [8]): < 1 nM
HCT116 pERK % Ymin (lowest value of the IC50 curve) ([2]; HCT116 cells): −3%
IC50 [2, 9]: < 0.5 µM
IC50 (CRAF; [10]): < 10 nM

Cc1c(Cl)cccc1S(=O)(=O)Nc1ccc(F)c(Nc2ncnc3ccc(-n4nc(C(=O)N5CCC(O)(C(F)(F)F)CC5)c5ccccc54)nc23)c1F
IC50 (BRAF; [5]): > 10 nM
HCT116 pERK Ymin % ([2]; HCT116 cells, Ymin in brackets): −7%
IC50 [2, 6]: 1 to 10 µM
IC50 (CRAF; [7]): > 50 nM

Cc1c(F)cccc1S(=O)(=O)Nc1ccc(F)c(Nc2ncnc3ccc(-n4nc(C(=O)N5CC(N6CCNCC6)C5)c5ccccc54)nc23)c1F
IC50 (BRAF; read-out: Kinase IC50 (nM) BRAF, tested form: formate): < 1 nM
HCT116 pERK Ymin % ([2]; HCT116 cells, Ymin in brackets, tested form: formate): −8.3%
IC50 ([2]; read-out: HCT116 pERK IC50, HCT116 cells, class symbol before the bracket, tested form: formate): 1 to 10 µM
IC50 (CRAF; read-out: Kinase IC50 (nM) CRAF, tested form: formate): 10 to 50 nM

Cc1c(F)cccc1S(=O)(=O)Nc1ccc(F)c(Nc2ncnc3ccc(-n4ncc5c(-c6ccncc6)cccc54)nc23)c1F
IC50 (BRAF; [5]): 1 to 10 nM
HCT116 pERK Ymin % ([2]; HCT116 cells, Ymin in brackets): 3.3%
IC50 [2, 6]: < 0.5 µM
IC50 (CRAF; [7]): 10 to 50 nM

Cc1c(Cl)cccc1S(=O)(=O)Nc1ccc(F)c(Nc2ncnc3ccc(-n4nc(C(=O)N5CCNC[C@@H]5C)c5ccccc54)nc23)c1F
IC50 (BRAF; [11]): < 1 nM
HCT116 pERK Ymin % [2, 12]: −0.2%
IC50 [2, 13]: < 0.5 µM
IC50 (CRAF; [14]): > 50 nM

O=S(=O)(Nc1ccc(F)c(Nc2ncnc3ccc(-n4cc(CO)nn4)nc23)c1F)c1cccc(Cl)c1Cl
IC50 (BRAF; [8]): 1 to 10 nM
HCT116 pERK % Ymin (lowest value of the IC50 curve) ([2]; HCT116 cells): −5%
IC50 [2, 9]: 1 to 10 µM
IC50 (CRAF; [10]): 10 to 50 nM

Cc1c(F)cccc1S(=O)(=O)Nc1ccc(F)c(Nc2ncnc3ccc(-n4nc(C(=O)N5C6CCC5COC6)c5ccccc54)nc23)c1F
IC50 (BRAF; [5]): 1 to 10 nM
HCT116 pERK Ymin % ([2]; HCT116 cells, Ymin in brackets): −9.6%
IC50 [2, 6]: < 0.5 µM
IC50 (CRAF; [7]): > 50 nM

Cc1c(Cl)cccc1S(=O)(=O)Nc1ccc(F)c(Nc2ncnc3ccc(-n4ccc(C(=O)N5CCN(C)CC5)n4)nc23)c1F
IC50 (BRAF; [5]): 1 to 10 nM
HCT116 pERK Ymin % ([2]; HCT116 cells, Ymin in brackets): −0.4%
IC50 [2, 6]: 0.5 to 1 µM
IC50 (CRAF; [7]): > 50 nM

COc1ccc(S(=O)(=O)Nc2ccc(F)c(Nc3ncnc4ccc(-n5c(C)nc6ccccc65)nc34)c2F)cc1
IC50 (BRAF; [5]): > 10 nM
HCT116 pERK Ymin % ([2]; HCT116 cells, Ymin in brackets): 6%
IC50 [2, 6]: 1 to 10 µM
IC50 (CRAF; [7]): > 50 nM

O=S(=O)(Nc1ccc(F)c(Nc2ncnc3ccc(-n4cnc5ccccc54)nc23)c1F)c1scc(Cl)c1Cl
IC50 (BRAF; [5]): < 1 nM
HCT116 pERK Ymin % [2, 3]: −3%
IC50 [2, 4]: < 0.5 µM
IC50 (CRAF; [7]): < 10 nM

O=S(=O)(Nc1ccc(F)c(Nc2ncnc3ccc(-n4nnc5c(F)cccc54)nc23)c1F)c1cccc(Cl)c1Cl
IC50 (BRAF; [8]): 1 to 10 nM
HCT116 pERK % Ymin (lowest value of the IC50 curve) ([2]; HCT116 cells): −13%
IC50 [2, 9]: < 0.5 µM
IC50 (CRAF; [10]): < 10 nM

C[C@H]1CNCCN1C(=O)c1nn(-c2ccc3ncnc(Nc4c(F)ccc(NS(=O)(=O)c5cccc(Cl)c5Cl)c4F)c3n2)c2ccccc12
IC50 (BRAF; [11]): < 1 nM
HCT116 pERK Ymin % [2, 12]: 7.2%
IC50 [2, 13]: < 0.5 µM
IC50 (CRAF; [14]): 10 to 50 nM
